Laboratory results reported in patent publication US20240327401A1, “FUSED RING COMPOUND, PHARMACEUTICAL COMPOSITION, AND APPLICATION THEREOF” (EVOPOINT BIOSCIENCES CO., LTD., priority 2021, published 2024).

The chains behind the UniProt entries cited, without tags or fusion partners. Where a name states a change or a piece, a line headed by the entry shows the natural chain unless it says otherwise. Residues count along the entry.
UniProt Q07889, 564-1049 limits assumed, stated change not applied: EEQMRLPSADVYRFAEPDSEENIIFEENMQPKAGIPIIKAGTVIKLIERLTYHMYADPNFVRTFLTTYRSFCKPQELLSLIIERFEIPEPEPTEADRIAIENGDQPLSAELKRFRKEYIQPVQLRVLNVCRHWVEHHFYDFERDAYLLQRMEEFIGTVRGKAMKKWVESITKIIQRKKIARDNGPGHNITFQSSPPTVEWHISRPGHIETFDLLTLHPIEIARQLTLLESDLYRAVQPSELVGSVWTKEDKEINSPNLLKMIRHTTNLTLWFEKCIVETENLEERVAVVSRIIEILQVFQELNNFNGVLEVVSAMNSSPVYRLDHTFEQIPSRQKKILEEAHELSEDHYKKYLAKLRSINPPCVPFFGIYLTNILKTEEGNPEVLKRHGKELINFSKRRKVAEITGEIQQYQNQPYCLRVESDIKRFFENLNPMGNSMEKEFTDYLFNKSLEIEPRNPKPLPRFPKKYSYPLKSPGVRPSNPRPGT

How the values were obtained:
[1] = biological target: SOS1/KRAS G12C protein binding (Homo sapiens, UniProt Q07889); test: Inhibition of SOS1/KRAS G12C protein binding (665 nm/615 nm ratio); details: read-out: KRAS-SOS1 IC50; 15 nM KRAS G12C (aa 1-169), 2.5 nM His-SOS1 (aa 564-1049); nonlinear regression
Description: Efficacy Example 2: Evaluation of Inhibition of SOS1/KRAS G12C Protein Binding
A test compound was dissolved in 100% DMSO to give a solution at a concentration of 10 mM. 10 μL of the solution was taken and 3-fold diluted with 100% DMSO to prepare test compound solutions with concentrations of 10000 nM to […], for a total of 11 concentrations. The compound solutions at different concentrations were then transferred to a 384-well plate at 0.1 μL/well using a sonic droplet device Echo (Labcyte), and 2 replicate wells were set for each concentration.
A 15 nM KRAS G12C (aa 1-169) protein (Pharmaron Beijing Co., Ltd., 20200707) was transferred to the 384-well reaction plate at 5 μL/well using the sonic droplet device Echo (Labcyte), and then the reaction plate was centrifuged in a centrifuge (Eppendorf, 5810R) at 1000 rpm/min for 1 min. […]
The 665 nm/615 nm optical density ratio was read using an Envision multifunctional microplate reader (Perkin Elmer, Envision 2104). […]
The IC50 (half maximal inhibitory concentration) values of the compounds were calculated using the following non-linear fitting equation: […]

[2] = test system: ERK phosphorylation in DLD-1 cells; test: In-cell Western blot assay for ERK phosphorylation in DLD-1 cells; details: read-out: DLD-1 p-ERK IC50, p-ERK signal corrected using DMSO and BI-3406, four-parameter fit
Description: Efficacy Example 1: In-cell Western Blot Assay for ERK Phosphorylation in DLD-1 Cells
DLD-1 cells (ATCC, CCL-221) were thawed and cultured in a culture medium containing RPMI1640 (Gibco, A10491-01), 10% fetal bovine serum (FBS) (Transgene, FS201-02) and 1% antibiotic P/S (Gibco, 15140-122) for 3 days until the cell viability was good. The cells were inoculated into a 384-well plate and incubated at 37° C. with 5% CO2 overnight. A test compound, a positive control compound, and a negative control were added. The compound was at concentrations of 10000 nM to 1.52 nM (3-fold dilution) and […], for a total of 10 concentrations. The mixture was well mixed and incubated at 37° C. with 5% CO2. The cells were washed twice with PBS (Solarbio, P1010), and then a blocking buffer was added. After 1 h of blocking at room temperature, a primary antibody mixture (phospho-p44/42 MAPK (T202/Y204) Rabbit mAb (CST, […]), GAPDH (D4C6R) Mouse mAb) (CST, 97166S) was added, followed by overnight incubation at 4° C. […] The 384-well plate was reversed and centrifuged at 1000 rpm for 1 min, and read on an Odyssey CLx fluorescence imaging system (LI-COR) to obtain fluorescence signal values, which were corrected using DMSO and BI-3406. […]
The IC50 values of the compounds were calculated using a four-parameter fitting algorithm, specifically as follows: […]

Compound: [2H]C([2H])([2H])Oc1c(=O)n(C2(C(F)F)CC2)cc2c(N[C@H](C)c3cccc(C(F)(F)F)c3C)nc(C)nc12
- IC50 [1]: 4.18 nM
- IC50 [2]: 93 nM
